23 compounds from US20250195530A1, “POLQ INHIBITORS” (ASTRAZENECA AB, priority 2022, published 2025) can be followed below.

Protein sequences, listed by entry. Tags and fused reporters are not part of them. Residues count along the entry.
UniProt O75417, 1780-2590: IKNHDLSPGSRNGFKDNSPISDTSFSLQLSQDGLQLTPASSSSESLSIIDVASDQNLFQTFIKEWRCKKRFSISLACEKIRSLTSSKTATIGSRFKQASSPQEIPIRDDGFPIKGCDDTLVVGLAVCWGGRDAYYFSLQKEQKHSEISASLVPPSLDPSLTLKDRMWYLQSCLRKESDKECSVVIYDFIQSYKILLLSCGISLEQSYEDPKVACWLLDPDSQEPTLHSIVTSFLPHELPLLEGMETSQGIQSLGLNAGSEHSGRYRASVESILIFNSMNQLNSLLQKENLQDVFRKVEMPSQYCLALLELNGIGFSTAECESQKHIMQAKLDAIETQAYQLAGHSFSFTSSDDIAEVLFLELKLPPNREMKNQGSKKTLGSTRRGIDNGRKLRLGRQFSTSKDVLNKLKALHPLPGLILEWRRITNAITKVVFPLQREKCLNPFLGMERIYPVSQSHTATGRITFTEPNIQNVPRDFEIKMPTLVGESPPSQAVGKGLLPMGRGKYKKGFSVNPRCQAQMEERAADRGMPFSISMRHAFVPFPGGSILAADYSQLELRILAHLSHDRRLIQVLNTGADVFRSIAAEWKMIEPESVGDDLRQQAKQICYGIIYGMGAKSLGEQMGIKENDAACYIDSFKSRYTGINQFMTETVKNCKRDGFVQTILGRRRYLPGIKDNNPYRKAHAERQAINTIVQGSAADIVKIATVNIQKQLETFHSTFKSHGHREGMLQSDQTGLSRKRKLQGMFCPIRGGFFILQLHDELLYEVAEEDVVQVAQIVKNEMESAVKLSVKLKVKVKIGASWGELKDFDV

This assay deals with isolated polymerase domain (I1780-V2590) of DNA polymerase theta (Polθ) (Homo sapiens (Human), UniProt O75417).

In the case of `CC1(Oc2ncnc3c2nc(-c2ccc(OCCN4CC[C@@H](O)C4)cc2Cl)n3Cc2cc(Cl)ccn2)CC1` [Example R2, (R)-1-(2-(3-chloro-4-(9-((4-chloropyridin-2-yl)methyl)-6-(1-methylcyclopropoxy)-9H-purin-8-yl)phenoxy)ethyl)pyrrolidin-3-ol], it took 3.16 nM to reach half-maximal inhibition (IC50).

For `C[C@H]1CN(CCOc2ccc(-c3nc4c(OC5(C)CC5)ncnc4n3Cc3ccccc3)c(Cl)c2)CCN1` [Example R3, (S)-9-benzyl-8-(2-chloro-4-(2-(3-methylpiperazin-1-yl)ethoxy)phenyl)-6-(1-methylcyclopropoxy)-9H-purine], half-maximal inhibition (IC50) required 2.51 nM. Next, `CC1(Oc2ncnc3c2nc(-c2ccc(OCCN4CC5CCC(C4)N5)cc2Cl)n3Cc2ccccc2)CC1` [Example R4, 8-(4-(2-(3,8-diazabicyclo[3.2.1]octan-3-yl)ethoxy)-2-chlorophenyl)-9-benzyl-6-(1-methylcyclopropoxy)-9H-purine]: 3.16 nM; `CC1(Oc2ncnc3c2nc(-c2ccc(OCCN4CC5CC(C4)N5)cc2Cl)n3Cc2ccccc2)CC1` [Example R5, 3-(2-(4-(9-benzyl-6-(1-methylcyclopropoxy)-9H-purin-8-yl)-3-chlorophenoxy)ethyl)-3,6-diazabicyclo[3.1.1]heptane]: 3.98 nM. On to `C[C@@H]1CN(CCOc2ccc(-c3nc4c(OC5(C)CC5)ncnc4n3Cc3ccccc3)c(Cl)c2)CCN1` [Example R6, (R)-9-benzyl-8-(2-chloro-4-(2-(3-methylpiperazin-1-yl)ethoxy)phenyl)-6-(1-methylcyclopropoxy)-9H-purine], for which the IC50 (usually the concentration that inhibits the measured activity by half) is 3.16 nM. For `CC1(Oc2ncnc3c2nc(-c2ccc(OCCN4CCC[C@@H](O)C4)cc2Cl)n3Cc2ccccc2)CC1` [Example R7, (R)-1-(2-(4-(9-benzyl-6-(1-methylcyclopropoxy)-9H-purin-8-yl)-3-chlorophenoxy)ethyl)piperidin-3-ol], 3.16 nM corresponded to half-maximal inhibition (IC50).

With `CC1(Oc2ncnc3c2nc(-c2ccc(OCCN4CC5(CNC(=O)C5)C4)cc2Cl)n3Cc2ccccc2)CC1` [Example R8, 2-(2-(4-(9-benzyl-6-(1-methylcyclopropoxy)-9H-purin-8-yl)-3-chlorophenoxy)ethyl)-2,6-diazaspiro[3.4]octan-7-one], the IC50 is 2.51 nM. Take `C[C@@H]1CN(CCOc2ccc(-c3nc4c(OC5(C)CC5)ncnc4n3Cc3ccccc3)c(Cl)c2)C[C@H](C)N1` [Example R9, (cis)-9-benzyl-8-(2-chloro-4-(2-(3,5-dimethylpiperazin-1-yl)ethoxy)phenyl)-6-(1-methylcyclopropoxy)-9H-purine]: the midpoint of inhibition, the IC50, lay at 3.16 nM.

`C[C@H]1CNCCN1CCOc1ccc(-c2nc3c(OC4(C)CC4)ncnc3n2Cc2ccccc2)c(Cl)c1` [Example R10, (S)-9-benzyl-8-(2-chloro-4-(2-(2-methylpiperazin-1-yl)ethoxy)phenyl)-6-(1-methylcyclopropoxy)-9H-purine] showed an IC50 of 2 nM. `C[C@@H]1CNCCN1CCOc1ccc(-c2nc3c(OC4(C)CC4)ncnc3n2Cc2ccccc2)c(Cl)c1` [Example R11, (R)-9-benzyl-8-(2-chloro-4-(2-(2-methylpiperazin-1-yl)ethoxy)phenyl)-6-(1-methylcyclopropoxy)-9H-purine] showed an IC50 of 2 nM.

`CC1(Oc2ncnc3c2nc(-c2ccc(OCCN4CCCNCC4=O)cc2Cl)n3Cc2ccccc2)CC1` [Example R12, 1-(2-(4-(9-benzyl-6-(1-methylcyclopropoxy)-9H-purin-8-yl)-3-chlorophenoxy)ethyl)-1,4-diazepan-2-one] gave an IC50 of 2 nM.

In turn, `CC1(Oc2ncnc3c2nc(-c2ccc(OCCN4C5CNCC4C5)cc2Cl)n3Cc2ccccc2)CC1` [Example R15, 6-(2-(4-(9-benzyl-6-(1-methylcyclopropoxy)-9H-purin-8-yl)-3-chlorophenoxy)ethyl)-3,6-diazabicyclo[3.1.1]heptane] had an IC50 of 2 nM.

`CC1(Oc2ncnc3c2nc(-c2ccc(OCCN4CCNC(C)(C)C4=O)cc2Cl)n3Cc2ccccc2)CC1` [Example R16, 1-(2-(4-(9-benzyl-6-(1-methylcyclopropoxy)-9H-purin-8-yl)-3-chlorophenoxy)ethyl)-3,3-dimethylpiperazin-2-one] gave an IC50 of 2 nM. `CC1(Oc2ncnc3c2nc(-c2ccc(OCCN4CCNC5(CC5)C4)cc2Cl)n3Cc2ccccc2)CC1` [Example R17, 8-(4-(2-(4,7-diazaspiro[2.5]octan-7-yl)ethoxy)-2-chlorophenyl)-9-benzyl-6-(1-methylcyclopropoxy)-9H-purine] showed an IC50 of 2 nM. In the case of `CC1(Oc2ncnc3c2nc(-c2ccc(OCCN4CCN[C@@H](CO)C4)cc2Cl)n3Cc2ccccc2)CC1` [Example R18, (R)-(4-(2-(4-(9-benzyl-6-(1-methylcyclopropoxy)-9H-purin-8-yl)-3-chlorophenoxy)ethyl)piperazin-2-yl)methanol], the IC50 was 2 nM. On to `CC1(Oc2ncnc3c2nc(-c2ccc(OCCN4C[C@@H]5C[C@H]4CN5)cc2Cl)n3Cc2ccccc2)CC1` [Example R19, 8-(4-(2-((1S,4S)-2,5-diazabicyclo[2.2.1]heptan-2-yl)ethoxy)-2-chlorophenyl)-9-benzyl-6-(1-methylcyclopropoxy)-9H-purine], for which the IC50 was 2 nM. Compound `CC1(Oc2ncnc3c2nc(-c2ccc(OCCN4C[C@H]5C[C@@H]4CN5)cc2Cl)n3Cc2ccccc2)CC1` [Example R20, 8-(4-(2-((1R,4R)-2,5-diazabicyclo[2.2.1]heptan-2-yl)ethoxy)-2-chlorophenyl)-9-benzyl-6-(1-methylcyclopropoxy)-9H-purine] gave an IC50 of 2 nM. `CC1(Oc2ncnc3c2nc(-c2ccc(OCCN4C[C@@H]5CC[C@H]4CN5)cc2Cl)n3Cc2ccccc2)CC1` [Example R21, (1S,4S)-2-(2-(4-(9-benzyl-6-(1-methylcyclopropoxy)-9H-purin-8-yl)-3-chlorophenoxy)ethyl)-2,5-diazabicyclo[2.2.2]octane] had an IC50 of 2 nM.

As for `CC1(Oc2ncnc3c2nc(-c2ccc(OCCN4CCNCC45CC5)cc2Cl)n3Cc2ccccc2)CC1` [Example R22, 8-(4-(2-(4,7-diazaspiro[2.5]octan-4-yl)ethoxy)-2-chlorophenyl)-9-benzyl-6-(1-methylcyclopropoxy)-9H-purine], half-maximal inhibition (IC50) required 2.51 nM. Consider `CC1(Oc2ncnc3c2nc(-c2ccc(OCCN4CCN[C@@H](CC#N)C4)cc2Cl)n3Cc2ccccc2)CC1` [Example R23, (S)-2-(4-(2-(4-(9-benzyl-6-(1-methylcyclopropoxy)-9H-purin-8-yl)-3-chlorophenoxy)ethyl)piperazin-2-yl)acetonitrile], for which the IC50 was 2.51 nM. Next, `CC1(Oc2ncnc3c2nc(-c2ccc(OCCCN4CCNCC4=O)cc2Cl)n3Cc2ccccc2)CC1` [Example S1, 1-(3-(4-(9-benzyl-6-(1-methylcyclopropoxy)-9H-purin-8-yl)-3-chlorophenoxy)propyl)piperazin-2-one]: 3.98 nM. Consider `CC1(Oc2ncnc3c2nc(-c2ccc(OCCCN4CCNC(=O)C4)cc2Cl)n3Cc2ccccc2)CC1` [Example S2, 4-(3-(4-(9-benzyl-6-(1-methylcyclopropoxy)-9H-purin-8-yl)-3-chlorophenoxy)propyl)piperazin-2-one], for which the IC50 was 5.01 nM.

`CC1(Oc2ncnc3c2nc(-c2ccc(OCCN4CCNCC4)cc2Cl)n3Cc2cc(C3CC3)ccn2)CC1` [Example S3, 8-(2-chloro-4-(2-(piperazin-1-yl)ethoxy)phenyl)-9-((4-cyclopropylpyridin-2-yl)methyl)-6-(1-methylcyclopropoxy)-9H-purine] showed an IC50 of 2 nM.
